Laboratory results from PubChem BioAssay (NCI).
Several values for one entry are separate records, joined by “and”; a condition that tells them apart may be missing. Identical values can stand only once. The list shows a part of the results, in another mix than the full data.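 For each line, cells grew in 96-well plates with the test compound present at a single concentration for 48 hours.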 Activity calls are given as the source filed them. The calls were made as follows: active = growth percent below 10; inactive = the rest.

Columns and labels:
Assay in all cases: NCI-60 one-dose screen, 48 h (100 = growth as untreated, 0 = no growth, -100 = all killed)
Settings in all cases: 10 µM unless noted
[1] = tested on: SK-MEL-2 melanoma
[2] = tested on: SN12C renal
[3] = tested on: UO-31 renal
[4] = tested on: TK-10 renal
[5] = tested on: ACHN renal
[6] = tested on: CAKI-1 renal
[7] = tested on: A498 renal
[8] = tested on: HL-60(TB) leukemia
[9] = tested on: CCRF-CEM leukemia
[10] = tested on: EKVX NSCLC

SMILES | growth [1] | growth [2] | growth [3] | growth [4] | growth [5] | growth [6] | growth [7] | growth [8] | growth [9] | growth [10]
COc1ccc([As](=O)(O)O)cc1 | inactive: 135% | inactive: 99% | inactive: 93.3% | inactive: 119% | inactive: 105% | inactive: 109% | inactive: 110% | inactive: 107% |  | 
ClC1(Cl)SC(Cl)(Cl)C(Cl)(Cl)C1(Cl)Cl | inactive: 89.8% | inactive: 105% | inactive: 85.8% | inactive: 114% | inactive: 103% | inactive: 100% | inactive: 106% | inactive: 95.9% | inactive: 90.5% | 
CCN(CC)[P+](c1ccc(OC)cc1OC)(N(CC)CC)N(CC)CC | inactive: 32.3% | inactive: 22.9% | inactive: 92.3% | inactive: 37.4% | inactive: 87.5% | inactive: 99% |  | active: -24.6% | inactive: 28.4% | 
CCOC(=O)NC(C)(CCC(C)(NC(=O)OCC)P(=O)(O)Nc1ncccn1)P(=O)(O)Nc1ncccn1 (stereo not given) | inactive: 106% [100 µM] | inactive: 95.9% [100 µM] | inactive: 92.9% [100 µM] | inactive: 92.9% [100 µM] | inactive: 101% [100 µM] | inactive: 93.9% [100 µM] | inactive: 121% [100 µM] | inactive: 98.7% [100 µM] | inactive: 101% [100 µM] | 
CCOP(=O)(CCBr)OCC | inactive: 115% and inactive: 125% | inactive: 106% | inactive: 86.8% and inactive: 98.8% | inactive: 102% and inactive: 112% | inactive: 102% and inactive: 105% | inactive: 94.1% and inactive: 96.2% | inactive: 93.1% and inactive: 29.5% | inactive: 103% and inactive: 97.5% | inactive: 97.6% and inactive: 112% | 
CCN(CC)CCOC(=O)C(O)(c1cccc(OC)c1OC)c1cccc(OC)c1OC |  | inactive: 93.8% | inactive: 90.4% | inactive: 90.2% | inactive: 103% | inactive: 101% | inactive: 93.6% | inactive: 96% | inactive: 93.3% | inactive: 111%
OC(CNCCCl)C(O)C(O)C(O)CNCCCl (stereo not given) | inactive: 105% | inactive: 98.3% | inactive: 97.5% | inactive: 98.1% | inactive: 93.3% | inactive: 110% | inactive: 104% | inactive: 92.5% | inactive: 88.1% | 
CCOC(=O)Nc1cccc([As](=O)(O)O)c1 |  | inactive: 97.9% | inactive: 80.7% | inactive: 91.6% | inactive: 94.9% | inactive: 35.6% | inactive: 93.1% | inactive: 94.2% | inactive: 87.3% | inactive: 96.4%
COP(=O)(OC)N(CCCl)CCCl | inactive: 109% | inactive: 108% | inactive: 91% | inactive: 108% | inactive: 104% | inactive: 87.3% | inactive: 109% | inactive: 35.7% | inactive: 99.1% | 
O=[As](O)(O)c1cccnc1 |  | inactive: 104% | inactive: 90.7% | inactive: 118% | inactive: 99.4% | inactive: 77.5% | inactive: 97.9% | inactive: 106% | inactive: 90.2% | inactive: 114%
CN(C)C(=O)Oc1ccc(/C=N/NC(N)=S)nc1 | inactive: 85.7% | inactive: 92.8% | inactive: 63.7% | inactive: 76.6% | inactive: 79.7% | inactive: 70.2% | inactive: 94.2% | inactive: 87% | inactive: 88.8% | 
O=C(Nc1cc([As](=O)(O)O)ccc1O)c1ccccc1 |  | inactive: 88.4% | inactive: 96.3% | inactive: 133% | inactive: 102% |  | inactive: 94.6% | inactive: 69.7% | inactive: 108% | inactive: 121%
Cc1ccc(OP(=O)(Nc2ccc([N+](=O)[O-])cn2)Oc2ccc(C)cc2)cc1 |  | inactive: 106% | inactive: 76.5% | inactive: 161% | inactive: 103% |  | inactive: 21.2% | inactive: 102% | inactive: 109% | inactive: 107%
ClCCN1CCNCC1 | inactive: 100% | inactive: 96.6% | inactive: 87.7% | inactive: 97% | inactive: 103% | inactive: 95.7% | inactive: 104% | inactive: 101% | inactive: 106% | 
CCSC(O)C(Cl)(Cl)Cl (stereo not given) | inactive: 112% | inactive: 103% | inactive: 82.2% | inactive: 114% | inactive: 103% | inactive: 97.5% | inactive: 86.7% | inactive: 95.3% | inactive: 109% | 
COC(=O)C1(C)COP(=O)(N2CCCC2)OC1 (stereo not given) | inactive: 95.4% | inactive: 102% | inactive: 80.3% | inactive: 108% | inactive: 107% | inactive: 97.4% | inactive: 111% | inactive: 96.4% | inactive: 92.5% | 
Cc1ccc(S(=O)(=O)CN(CCCl)CCCl)cc1 |  | inactive: 103% | inactive: 83.4% | inactive: 126% | inactive: 98.7% | inactive: 101% | inactive: 101% | inactive: 105% | inactive: 99.7% | 
O=C(c1ccc([N+](=O)[O-])cc1)N(CCCl)CCCl | inactive: 116% | inactive: 104% | inactive: 98.1% | inactive: 97.1% | inactive: 104% | inactive: 90% |  | inactive: 103% | inactive: 101% | 
ClCCNCc1cccc(Cl)c1 | inactive: 125% | inactive: 104% | inactive: 91.8% | inactive: 123% | inactive: 102% | inactive: 98.5% | inactive: 94.2% | inactive: 93.1% | inactive: 87.4% | 
NC(=S)N/N=C/c1ccc(N(CCF)CCCl)cc1 | inactive: 110% | inactive: 87.8% | inactive: 68.1% | inactive: 115% | inactive: 86.7% | inactive: 94.5% | inactive: 91.5% | inactive: 95.5% | inactive: 72.3% | 
ClCCN1CCc2ccccc2C1 | inactive: 104% | inactive: 92.8% | inactive: 74.6% | inactive: 88.3% | inactive: 88.9% |  | inactive: 98.6% | inactive: 96.5% |  | 

SMILES | growth [1] | growth [2] | growth [3] | growth [4] | growth [5] | growth [6] | growth [7] | growth [8] | growth [9] | growth [10]
CCOC(=O)c1sc2ncnc(NCCCl)c2c1C | inactive: 122% | inactive: 95.4% | inactive: 82.3% | inactive: 131% | inactive: 95% | inactive: 87.1% | inactive: 86.3% | inactive: 82.4% | inactive: 92.1% | 
O=C(O)CNc1ccc([As](=O)(O)O)cc1 |  | inactive: 97.4% | inactive: 91.2% | inactive: 98.8% | inactive: 97.9% | inactive: 81.6% | inactive: 89.6% | inactive: 88.3% | inactive: 100% | inactive: 103%
ClP1Nc2cncnc2N1 (stereo not given) | inactive: 122% | inactive: 101% | inactive: 83.4% | inactive: 98.7% | inactive: 110% | inactive: 92.3% | inactive: 135% | inactive: 98.7% | inactive: 104% | 
O=C(OC1CN2CCC1CC2)c1ccccc1 (stereo not given) |  | inactive: 101% | inactive: 88.9% | inactive: 107% | inactive: 110% | inactive: 90.4% | inactive: 92.8% | inactive: 106% | inactive: 90% | inactive: 98.5%
O=C1OCCN1P(=O)(Cl)N1CCOC1=O |  | inactive: 99.3% | inactive: 91% | inactive: 112% | inactive: 108% | inactive: 98% | inactive: 103% | inactive: 97.4% | inactive: 94% | inactive: 98.3%
NC(=O)Nc1ccc([As](=O)(O)O)cc1 |  | inactive: 100% | inactive: 87.7% | inactive: 98.4% | inactive: 115% | inactive: 95.1% | inactive: 99.7% | inactive: 73.7% | inactive: 106% | inactive: 98.7%
O=[N+]([O-])c1ccc(SSc2ccc([N+](=O)[O-])cc2[N+](=O)[O-])c([N+](=O)[O-])c1 | inactive: 104% | inactive: 101% | inactive: 75.9% |  |  | inactive: 86.1% | inactive: 95.5% |  | inactive: 29.7% | 
COc1cc(I)ccc1[As](=O)(O)O |  | inactive: 97% | inactive: 101% | inactive: 127% | inactive: 101% |  | inactive: 96.8% | inactive: 81.4% | inactive: 87.3% | inactive: 112%
CCOP(=S)(OCC)OCC | inactive: 113% | inactive: 105% | inactive: 98% | inactive: 107% | inactive: 99.4% | inactive: 101% | inactive: 112% | inactive: 120% | inactive: 106% | 
O=C(Nc1ccc([N+](=O)[O-])cc1)N(CCBr)CCBr | inactive: 110% | inactive: 100% | inactive: 68.5% | inactive: 101% | inactive: 94.3% | inactive: 88.2% | inactive: 76.9% | inactive: 106% | inactive: 92.7% | 
NNc1ccc([N+](=O)[O-])cc1[N+](=O)[O-] |  | inactive: 98.9% | inactive: 60.8% | inactive: 106% | inactive: 89.4% | inactive: 84.1% | inactive: 99.2% | inactive: 98.7% | inactive: 69.9% | inactive: 101%
CC1(C)NC(C)(C)C(Br)C(=O)C1Br (stereo not given) |  | inactive: 114% | inactive: 105% | inactive: 114% | inactive: 113% | inactive: 98.2% | inactive: 132% | inactive: 61.4% | inactive: 110% | inactive: 111%
CCN(CC)C(=O)Oc1ccc(/C=N/NC(N)=S)nc1 | inactive: 77% | inactive: 79.2% | inactive: 51.7% | inactive: 67.6% | inactive: 62% |  | inactive: 115% | inactive: 83.8% | inactive: 73.9% | 
Cc1cc([N+](=O)[O-])cc([N+](=O)[O-])c1O | inactive: 112% | inactive: 96.5% | inactive: 93.3% | inactive: 104% | inactive: 109% | inactive: 101% | inactive: 82.3% | inactive: 98.1% | inactive: 98.5% | 
CCOP(=O)(CCCBr)OCC | inactive: 107% | inactive: 98.9% | inactive: 89.8% | inactive: 106% | inactive: 103% | inactive: 112% | inactive: 100% | inactive: 103% | inactive: 95.5% | 
O=C(O)Cc1ccc(N(CCCl)CCCl)cc1 |  | inactive: 99.1% | inactive: 90.1% | inactive: 109% | inactive: 103% |  |  | inactive: 96.8% | inactive: 88.6% | 
O=P1(N(CCCl)CCCl)NCCC(C(F)(F)F)O1 (stereo not given) | inactive: 116% | inactive: 100% | inactive: 102% | inactive: 102% | inactive: 101% | inactive: 89% | inactive: 76.8% | inactive: 87.1% | inactive: 102% | 
COP(=O)(CCCBr)OC | inactive: 107% | inactive: 98.2% | inactive: 91.8% | inactive: 101% | inactive: 100% | inactive: 97.7% | inactive: 122% | inactive: 102% | inactive: 94% | 
O=P1(Nc2ncccn2)OC(CCl)=NC1c1ccc(C2N=C(CCl)OP2(=O)Nc2ncccn2)cc1 (stereo not given) |  |  |  | inactive: 97.7% |  |  |  | inactive: 93.1% |  | 
CCCCCCCNP(=S)(Cl)Cl | inactive: 115% | inactive: 104% | inactive: 87.7% | inactive: 106% | inactive: 101% | inactive: 99.3% | inactive: 102% |  | inactive: 109% | 
